Experimental data published in BindingDB's records for 24657054.
pEC50, pKi: −log10 of the molar value.

Protein sequences, listed by entry. Tags and fused reporters are not part of them.
UniProt P35372, whole entry: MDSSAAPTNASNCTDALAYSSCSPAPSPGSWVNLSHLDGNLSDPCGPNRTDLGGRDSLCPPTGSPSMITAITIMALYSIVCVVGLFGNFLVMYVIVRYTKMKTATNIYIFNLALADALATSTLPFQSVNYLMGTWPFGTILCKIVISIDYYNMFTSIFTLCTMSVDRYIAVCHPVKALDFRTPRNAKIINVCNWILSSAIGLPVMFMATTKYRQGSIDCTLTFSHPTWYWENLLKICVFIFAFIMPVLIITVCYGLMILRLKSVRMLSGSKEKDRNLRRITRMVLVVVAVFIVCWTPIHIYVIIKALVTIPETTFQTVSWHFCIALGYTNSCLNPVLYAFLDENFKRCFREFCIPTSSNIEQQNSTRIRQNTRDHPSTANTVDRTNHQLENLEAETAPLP
UniProt P41146, whole entry: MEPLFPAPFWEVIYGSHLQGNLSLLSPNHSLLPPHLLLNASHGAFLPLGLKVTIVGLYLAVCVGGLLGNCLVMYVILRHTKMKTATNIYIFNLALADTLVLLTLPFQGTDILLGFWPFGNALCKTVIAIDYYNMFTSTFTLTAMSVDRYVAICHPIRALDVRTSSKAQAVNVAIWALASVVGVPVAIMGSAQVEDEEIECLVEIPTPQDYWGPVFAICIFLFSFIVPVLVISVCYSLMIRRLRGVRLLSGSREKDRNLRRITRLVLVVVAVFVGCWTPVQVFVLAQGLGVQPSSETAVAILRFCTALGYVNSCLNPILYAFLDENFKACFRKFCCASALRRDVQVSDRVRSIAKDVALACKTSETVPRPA

Legend:
Mu-type opioid receptor [1] = molecular target: T1, Mu-type opioid receptor (Homo sapiens, UniProt P35372); assay: Agonist activity at human mu opioid receptor transfected in CHO cell membranes assessed as stimulation of [35S]GTPgammaS binding after 60 mins by scintillation counting analysis
Nociceptin receptor [2] = molecular target: T2, Nociceptin receptor (Homo sapiens, UniProt P41146); assay: Displacement of [3H]N/OFQ from human nociceptin opioid receptor transfected in CHO cell membranes
Mu-type opioid receptor [3] = molecular target: T1, Mu-type opioid receptor; assay: Displacement of [3H]DAMGO from human mu opioid receptor transfected in CHO cell membranes after 60 mins
Nociceptin receptor [4] = molecular target: T2, Nociceptin receptor; assay: Agonist activity at human nociceptin opioid receptor transfected in CHO cell membranes assessed as stimulation of [35S]GTPgammaS binding after 60 mins by scintillation counting analysis

CCC1C(=O)N(C2CCN([C@H]3CC[C@@H]4CCCc5cccc3c54)CC2)c2ccccc21 (some centres undefined)
pEC50 (Mu-type opioid receptor [1]): 7.24 | pKi (Nociceptin receptor [2]): 8.49 | pKi (Mu-type opioid receptor [3]): 8.09 | pEC50 (Nociceptin receptor [4]): 7.66
